Active and inactive are the calls of the source. The rule behind the calls is not given here.
Organism: Homo sapiens
Experiment: Induction of human pluripotent stem cell derived oligocortical organoid differentiation assessed as increase in CCI-positive maturing oligodendrocytes percentage at 350 to 1750 nM incubated for 30 days by immunostaining analysis
Type: functional, tissue-based
Conditions: dose lower […], dose upper 1750.0 nM, time 30.0 day

CCN1C(=O)N(c2ccc(C3CC3)cc2)C(=O)C12CCN(CC1CCOCC1)CC2
Activity: Active

Source: ChEMBL document CHEMBL5518221, “Discovery and Optimization of Selective Brain-Penetrant EBP Inhibitors that Enhance Oligodendrocyte Formation” (J Med Chem, 2024)
